# Yeast mating assay 1: variants of the scFv Ab-14

Target peptide (SARS-CoV-2 spike, HR2 region): PDVDLGDISGINAS

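Variants in AAYL50 differ from the parent at up to three CDR positions; double and triple changes were sampled at random. Affinity was read by AlphaSeq, a pooled yeast mating assay with surface-displayed partners. The frequency of each diploid, read from paired DNA barcodes, reflects how well the two displayed proteins bind. Scores were corrected for input abundance and mapped to Kd with protein pairs of known affinity run in the same pool. The assay was run in three technical replicates.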

Parent scFv Ab-14: VH joined to VL by three GGGGS repeats. Changes lie in the light chain CDRs alone.
VH: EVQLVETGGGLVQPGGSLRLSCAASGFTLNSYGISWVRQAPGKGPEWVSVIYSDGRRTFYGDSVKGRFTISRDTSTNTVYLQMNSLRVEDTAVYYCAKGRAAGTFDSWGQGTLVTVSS
VL: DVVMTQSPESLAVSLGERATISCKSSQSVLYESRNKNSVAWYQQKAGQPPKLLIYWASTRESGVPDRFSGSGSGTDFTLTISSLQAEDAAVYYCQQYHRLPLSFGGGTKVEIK

Variants are written as CDR1, CDR2 and CDR3 of the light chain (limits as in the source). Parent: KSSQSVLYESRNKNSVA, WASTRES, QQYHRLPLS.
Values are log10 of the apparent Kd in nM; lower means stronger binding.
A mean of the replicates is given; it leaves out those without a signal.
"no signal" marks a missing value. The strain was present, yet no cells mated with the target were sequenced in any replicate, which points to weak or no binding.
Three control strains display no target. For library AAYL50, 18% of the pairings with them gave a signal, with a median of 4.19 and one signal in twenty below 2.99, so weak values seen in few replicates may be background.

CDR-L1 | CDR-L2 | CDR-L3 | log10 Kd (nM), mean | replicates with signal
KSSQSVLYESFNKNSVA | WASTRGS | QQCHRLPLS | 0.78 | 3/3
KSSQSVLYESRNKNSVA | WASIRPS | KQYHRLPLS | no signal | 0/3
KSSQSVLYESRNKNSVA | WASTFES | QDSHRLPLS | no signal | 0/3
KSSQSVLYESRNKNSVA | WLSTRET | QQYHFLPLS | no signal | 0/3
KSSQSVLYESRNKNSVN | WESTRES | QPYHRLPLS | no signal | 0/3
KSSQSVLYESRNKNDVA | WDSTRES | QQYHRLPCS | no signal | 0/3
KSSSSLLYESRNKNSVA | QASTRES | QQYHRLPLS | -0.11 | 3/3
KSQQSVLYESRNKNSVA | WASTREA | QQSHRLPLS | no signal | 0/3
KSSQSVLYESRNKNSVW | WFKTRES | QQYHRLPLS | no signal | 0/3
WSSQSVWYESRNKNSVA | WASTRES | QQYHRLILS | 2.98 | 3/3
KSSTSVSYESRNCNSVA | WASTRES | QQYHRLPLS | 1.19 | 3/3
KSSMSVLYESRNKNSGA | WASTRAS | QQYHRLPLS | 3.81 | 2/3
KSSHSVLYESINKNSVA | WTSTRES | QQYHRLPLS | 0.90 | 3/3
KSSQSVLLESRNKNSYA | WAFTRES | QQYHRLPLS | 5.51 | 2/3
KSSQSVLYESRCWNSVK | WASTRES | QQYHRLPLS | 5.49 | 2/3
KSSQSVLYESRVKNSYA | YASTRES | QQYHRLPLS | 4.31 | 1/3
KSSQDVLYESRNKNSVA | WASTRES | QQYHTLPLS | 0.52 | 3/3
KSSQSVLYESNNDNSVA | WASTTES | QQYHRLPLS | 3.03 | 3/3
KLSKSVLYESRNWNSVA | WASTRES | QQYHRLPLS | 0.66 | 3/3
KSSQSVLYESRNKNSAA | WASTRES | QQFHRLPLS | 5.21 | 1/3
KSSQSVLYESRNKNSVA | WASTREI | QQCHGLPLS | no signal | 0/3
KSSQSVLYESRNKNSVA | WASTRVS | QTYHRLPDS | 1.69 | 3/3
KSSQSCLYESRNKNSPA | WASTRNS | QQYHRLPLS | no signal | 0/3
KSSQSVLEESRNKNSVA | WSSWRES | QQYHRLPLS | 0.61 | 3/3
KSSQSVLYESRNKNSVA | WKSTRWS | QQYHRLPLS | 2.71 | 3/3
KSSQSVLYESRNKLSVA | WASTRES | QQYKVLPLS | 1.76 | 3/3
KSSQSPLYESRNKNSVA | WAKTRES | QQYHRLPDS | no signal | 0/3
KSSQSVLYESRNKNSVA | WIKTDES | QQYHRLPLS | no signal | 0/3
KSSQSVLYESRNKNSVA | WASTWES | QMRHRLPLS | no signal | 0/3
KSSQSVLYECRNKNSCA | WASTRES | QCYHRLPLS | no signal | 0/3
KSSQSVLYESGNKNSVA | WASHSES | QQYHRLPLS | 2.84 | 3/3
KSSDSVLYEDRNKNSVA | WASTREM | QQYHRLPLS | 0.92 | 3/3
KSSQSVLYEDRNKNSVA | WASTREP | QQYHRRPLS | 2.04 | 2/3
KSSQSVLYENRNKNSVA | WASTRES | IQYHRLDLS | 5.23 | 1/3
KSSQSRLYESRNKNWVA | WASTRES | QQSHRLPLS | 4.90 | 2/3
KSSQSVLYESRNKNSVA | MASPRES | QQYHRLDLS | no signal | 0/3
KSSQSVLYESRNKNSVA | WASTRES | MTCHRLPLS | no signal | 0/3
KSSQSVLYESRNKKSVA | WASVRES | QQYHRLPLS | 1.18 | 3/3
YSSQSVLYEHRNKNSYA | WASTRES | QQYHRLPLS | 3.60 | 1/3
KSSQSVGYESRNKNSVA | WASTDES | QFYHRLPLS | no signal | 0/3
KSSQSVQYESRNKNSVA | IAQTRES | QQYHRLPLS | no signal | 0/3
KSSQSNLYESRNKNSVA | WAWTRES | QQYHYLPLS | no signal | 0/3
KSSQPVLYLSRNKNSVA | WASTRES | QQYHRLPLS | no signal | 0/3
KSSISVLYESRNKNSVN | WASTRES | QQYHRLPIS | no signal | 0/3
KSSQSVLYESRNKMPVA | WASTRES | CQYHRLPLS | 4.52 | 1/3
KSSQSVLAESRNKNEVA | WASTRES | GQYHRLPLS | 4.76 | 1/3
KSSQSVLYESFNKNSVA | WASTRDS | QQPHRLPLS | no signal | 0/3
KSSQSVLDESRSKNSVA | WLSTRES | QQYHRLPLS | 1.52 | 3/3
KISQSVLYESRNKNSVQ | WASTRES | QQYHRLPYS | 4.32 | 3/3
KHSQSVLYTSRNKNHVA | WASTRES | QQYHRLPLS | 2.70 | 3/3
KSSGSVLYESRNKNSVA | WESTRLS | QQYHRLPLS | 1.20 | 3/3
KSSWGTLYESRNKNSVA | WASTRES | QQYHRLPLS | 0.63 | 3/3
KSWQSVLYESAIKNSVA | WASTRES | QQYHRLPLS | no signal | 0/3
KSSQMVLYESRNKNSVA | WASTRES | QCYHRTPLS | 1.14 | 3/3
KSTQSALYESRNKNSVA | WASTRMS | QQYHRLPLS | 1.01 | 3/3
KSSQSVLYESRWKHSVA | WASTRES | QQYARLPLS | 2.76 | 3/3
KSSQLYLYESRNKNSYA | WASTRES | QQYHRLPLS | 4.30 | 3/3
KSSQSVLYESRNTNSVA | WASRRES | QQYHRLPVS | 1.53 | 3/3
KDSQSVLYQSRNKNSVA | WASTRES | QQYDRLPLS | 1.27 | 3/3
KSSQDVLYESRNKNSVA | WASTRES | QQYHHLPTS | 1.80 | 3/3
KSSQSVLYEQRNKNSVA | WASTRES | QQYHKLPLS | 1.68 | 3/3

The opening 10 entries, copied out:

CDR-L1 | CDR-L2 | CDR-L3 | log10 Kd (nM), mean | replicates with signal
KSSQSVLYESFNKNSVA | WASTRGS | QQCHRLPLS | 0.78 | 3/3
KSSQSVLYESRNKNSVA | WASIRPS | KQYHRLPLS | no signal | 0/3
KSSQSVLYESRNKNSVA | WASTFES | QDSHRLPLS | no signal | 0/3
KSSQSVLYESRNKNSVA | WLSTRET | QQYHFLPLS | no signal | 0/3
KSSQSVLYESRNKNSVN | WESTRES | QPYHRLPLS | no signal | 0/3
KSSQSVLYESRNKNDVA | WDSTRES | QQYHRLPCS | no signal | 0/3
KSSSSLLYESRNKNSVA | QASTRES | QQYHRLPLS | -0.11 | 3/3
KSQQSVLYESRNKNSVA | WASTREA | QQSHRLPLS | no signal | 0/3
KSSQSVLYESRNKNSVW | WFKTRES | QQYHRLPLS | no signal | 0/3
WSSQSVWYESRNKNSVA | WASTRES | QQYHRLILS | 2.98 | 3/3

Values reported by Engelhart et al. 2022, doi:10.1038/s41597-022-01779-4 (FLAb copy).